Values of other authors in patent publication US12178829B2, “Altering net charge on mannosylated dextrans to maximize target tissue uptake and off target competitive blocking” (Navidea Biopharmaceuticals, Inc., priority 2022, dated 2024).

Conditions: in humans, injected into the blood

**Q.** With “dextran 3-[(2-aminoethyl)thio]propyl 17-carboxy-10,13,16-tris(carboxymethyl)-8-oxo-4-thia-7,10,13,16-tetraazaheptadec-1-yl 3-[[2-[[1-imino-2-(D-mannopyranosylthio)ethyl]amino]ethyl]thio]propyl ether complexes [tilmanocept]” as the substance, how does the blood half-life read?
**A.** The blood half-life was “about 20 minutes”.
